Experimental data reported in ChEMBL document CHEMBL1177649, “Synthesis and structure-affinity relationships of novel small molecule natural product derivatives capable of discriminating between serotonin 5-HT1A, 5-HT2A, 5-HT2C receptor subtypes” (Bioorg Med Chem, 2010).

The chains behind the UniProt entries cited, without tags or fusion partners. Where a name states a change or a piece, a line headed by the entry shows the natural chain unless it says otherwise.
UniProt P08908, whole entry: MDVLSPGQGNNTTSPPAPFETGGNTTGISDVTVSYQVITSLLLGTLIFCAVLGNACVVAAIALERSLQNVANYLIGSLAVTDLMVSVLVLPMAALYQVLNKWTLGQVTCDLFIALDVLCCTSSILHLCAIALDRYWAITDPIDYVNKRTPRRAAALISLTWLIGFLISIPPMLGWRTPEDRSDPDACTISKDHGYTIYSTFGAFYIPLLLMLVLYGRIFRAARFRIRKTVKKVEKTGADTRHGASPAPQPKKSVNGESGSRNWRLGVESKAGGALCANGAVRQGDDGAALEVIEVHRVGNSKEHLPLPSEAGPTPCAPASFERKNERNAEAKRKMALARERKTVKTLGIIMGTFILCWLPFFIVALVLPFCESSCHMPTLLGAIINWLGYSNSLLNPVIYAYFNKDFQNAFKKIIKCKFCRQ
UniProt P28223, whole entry: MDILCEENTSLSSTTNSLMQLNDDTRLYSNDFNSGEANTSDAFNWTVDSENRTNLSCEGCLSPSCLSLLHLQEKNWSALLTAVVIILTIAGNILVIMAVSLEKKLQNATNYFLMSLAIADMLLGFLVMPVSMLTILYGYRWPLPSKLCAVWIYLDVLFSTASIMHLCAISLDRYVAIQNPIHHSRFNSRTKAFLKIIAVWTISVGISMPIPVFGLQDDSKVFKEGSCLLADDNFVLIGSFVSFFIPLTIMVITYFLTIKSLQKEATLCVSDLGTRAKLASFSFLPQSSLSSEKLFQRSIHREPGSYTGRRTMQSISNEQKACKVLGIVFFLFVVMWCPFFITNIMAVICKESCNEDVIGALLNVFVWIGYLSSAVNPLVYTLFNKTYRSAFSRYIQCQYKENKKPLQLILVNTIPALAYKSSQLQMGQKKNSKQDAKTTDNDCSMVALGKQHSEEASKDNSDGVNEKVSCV
UniProt P28335: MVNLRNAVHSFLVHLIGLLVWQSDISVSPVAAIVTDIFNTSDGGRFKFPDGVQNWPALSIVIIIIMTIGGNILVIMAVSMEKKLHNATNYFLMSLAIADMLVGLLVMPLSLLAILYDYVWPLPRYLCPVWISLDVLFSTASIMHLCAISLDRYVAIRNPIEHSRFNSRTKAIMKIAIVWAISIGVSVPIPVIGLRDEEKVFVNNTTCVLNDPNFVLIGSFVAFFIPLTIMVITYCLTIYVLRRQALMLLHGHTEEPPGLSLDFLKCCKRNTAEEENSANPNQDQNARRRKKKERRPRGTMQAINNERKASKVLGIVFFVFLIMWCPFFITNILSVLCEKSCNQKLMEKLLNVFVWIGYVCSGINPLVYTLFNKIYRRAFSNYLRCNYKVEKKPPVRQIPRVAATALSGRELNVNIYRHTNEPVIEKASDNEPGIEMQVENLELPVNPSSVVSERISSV

Assays:
Assay type in all cases: cell-based
[1] = target: 5-hydroxytryptamine receptor 1A (Homo sapiens) (UniProt P08908); assay: Displacement of [3H]MPPF from human cloned 5HT1A receptor expressed in HEK293 cells at 3 uM after 90 mins by liquid scintillation counting
How it was run: (§1)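 Crude membranes from HEK293 cells stably expressing the receptor (G418 selection) in 50 mM Tris, pH 7.4. Radioligand targeted at ~500 pM. Compound added from a 3 mM DMSO stock diluted 1:1000. Nonspecific binding defined with 5 μM NAN-190 (5-HT1A) or 5 μM mianserin (5-HT2C). Incubated ≥90 min at 25°C, then filtered through PEI-soaked GF/C filters. Percent displacement of specific binding; triplicates, 3–4 experiments.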

[2] = target: 5-hydroxytryptamine receptor 2A (Homo sapiens, UniProt P28223); assay: Displacement of [3H]methylspiperone from human cloned 5HT2A receptor expressed in HEK293 cells at 3 uM after 90 mins by liquid scintillation counting
How it was run: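 Crude membranes from HEK293 cells stably expressing the receptor (calcium phosphate transfection, G418-selected clones), in 50 mM Tris pH 7.4. Single-point screen: 3 mM DMSO stock diluted 1:1000. Radioligand targeted at about 500 pM, nonspecific binding defined by 5 μM mianserin. Incubated at least 90 min at 25°C, then filtered on PEI-soaked GF/C filters and washed cold. Percent specific displacement, triplicates, 3–4 experiments.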

[3] = target: 5-hydroxytryptamine receptor 2C (Homo sapiens, UniProt P28335); assay: Displacement of [3H]mesulergine from human cloned 5HT2C receptor expressed in HEK293 cells at 3 uM after 90 mins by liquid scintillation counting; how it was run: as §1

`CN1C(=N)N(C)/C(=C/c2c[nH]c3ccccc23)C1=O` [APLYSINOPSIN] was tested, and the Activity [1] was 0%, the Activity [2] was 47% and the Activity [3] was 0%.
`CCN1C(=N)N(C)/C(=C/c2c[nH]c3cc(F)ccc23)C1=O` gave an Activity [1] of 0%, an Activity [2] of 86% and an Activity [3] of 0%.
With `CCN1C(=N)N(C)/C(=C\c2c[nH]c3ccccc23)C1=O` the Activity [1] was 0%, the Activity [2] was 50% and the Activity [3] was 0%.
